According to patent publication US20050192261A1, “Methods and reagents for the treatment of immunoinflammatory disorders” (priority 2003, published 2005):

Tested on: TNFα secretion in white blood cells from human buffy coat stimulated with phorbol 12-myristate 13-acetate and ionomycin
Assay: TNFα secretion assay
Settings: prednisolone 0 μM; cetrizine HCl r5-r13: 0,0.2,0.4,0.8,1.6,3.2,6.4,13,26 μM

Cl.Cl.O=C(O)COCCN1CCN(C(c2ccccc2)c2ccc(Cl)cc2)CC1 (stereo not shown) [Cetrizine HCl]
inhibition of TNFα secretion: 2.4
